Measurements reported in patent US12331334B2.

Assays:
[1] = molecular target: human complement protein C3 (human)
[2] = molecular target: Lys-plasminogen (Homo sapiens (Human)) (UniProt P00747)
[3] = molecular target: Glu-plasminogen (Homo sapiens (Human)) (UniProt P00747)
[4] = molecular target: human complement protein C3 (human); remark: listed apart in the source
[5] = molecular target: human C3 FRET peptide
[6] = molecular target: human C3 FRET peptide; remark: listed apart in the source

Substance | ED50 80% human plasma (60 min, nM), hemolysis of sensitized sheep erythrocytes [1] [nM] | kcat/Km (M^-1s^-1) of plasminogen activation, indirect chromogenic assay [2] [M⁻¹ s⁻¹] | other results
modified u-PA protease domain F30Y/R35W/R36H/H37D/V38E/T39Y/Y40F/V41R/T97aI/L97bA/H99Q/C122S/Y149R/M157K (enzyme) | 195 |  | 
modified u-PA protease domain F30Y/V38D/Y40H/V41R/L97bA/H99Q/C122S/M157K (enzyme) | 1030 | 403 | kcat/KM (M^-1s^-1) of Glu-plasminogen activation [3]: 459 M⁻¹ s⁻¹
modified u-PA protease domain F30Y/R35Q/R36H/H37G/R37aE/V38E/T39F/Y40F/V41R/D60aP/Y60bS/T97aI/L97bA/H99Q/C122S/Y149R/M157K (enzyme) | 220 |  | 
modified u-PA polypeptide (protease domain) containing the replacements R35Q/H37Y/R37aE/V38E/T39Y/V41R/D60aP/Y60bQ/T97aI/L97bA/H99Q/C122S/Y149R (enzyme) |  |  | EC50 for cleavage of hC3 (residual intact hC3 by AlphaScreen, 1 hour at 37 C) [4]: 19 nM
modified u-PA C[4]S/F30Y/R35W/R36H/H37E/V38E/T39W/Y40H/V41R/Y60bH/T97aI/L97bA/H99Q/C122S/Y149R/M157K/Q192A (enzyme) |  |  | kcat/KM (M^-1s^-1) of Glu-plasminogen activation [3]: 0.991 M⁻¹ s⁻¹
modified u-PA protease domain F30Y/R35W/R36H/H37N/V38E/T39Y/Y40F/V41R/Y60bS/T97aE/L97bA/H99Q/C122S/Y149K/M157K (enzyme) | 220 |  | 
modified u-PA protease domain R35W/H37D/R37aP/V38E/T39W/V41R/Y60bA/T97aI/L97bA/H99Q/C122S/Y149R (enzyme) | 196 | < 10 | 
modified u-PA protease domain F30Y/R35W/R36H/H37E/V38E/T39W/Y40H/V41R/Y60bQ/T97aE/L97bA/H99Q/C122S/Y149K/M157K (enzyme) | 257 | < 10 | 
Fc-u-PA (SEQ ID NO: 987) (Fc fusion) |  |  | Activity (nM EDANS/min/µL sample), expi293 supernatant on 40 µM human C3 FRET peptide (nM EDANS/min/µL sample) [5]: -0.1
modified u-PA protease domain F30Y/R35Y/R36H/H37K/V38E/T39F/Y40F/V41R/T97aI/L97bA/H99Q/C122S/Y149R/M157K (enzyme) | 227 | < 10 | 
modified u-PA protease domain R35Q/H37Y/R37aE/V38E/T39Y/V41R/D60aT/Y60bT/T97aI/L97bA/H99Q/C122S/Y149R (enzyme) | 253 | < 10 | 
modified u-PA protease domain R35W/R36H/H37N/V38E/T39F/Y40F/V41R/T97aI/L97bA/H99Q/C122S/Y149R/M157K/Q192H (enzyme) | 208 |  | 
modified u-PA protease domain F30Y/R35W/R36H/H37P/V38E/T39Y/Y40F/V41R/Y60bS/T97aE/L97bA/H99Q/C122S/Y149K/M157K (enzyme) | 185 |  | 
modified u-PA protease domain R35Q/H37Y/R37aE/V38E/T39Y/V41R/D60aP/Y60bQ/T97aI/L97bA/H99Q/C122S/Y149R (enzyme) |  |  | Enzyme specific activity (nmol/min/nmol), Human C3 FRET Peptide assay (nmol/min/nmol) [6]: 19.7
modified u-PA V38D/L97bA/H99Q/C122S (enzyme) |  |  | kcat/KM (M^-1s^-1) of Glu-plasminogen activation [3]: 1380 M⁻¹ s⁻¹
modified u-PA protease domain R35W/H37P/R37aN/V38E/T39Y/V41R/D60aP/Y60bL/T97aI/L97bA/H99Q/C122S/Y149R (enzyme) | 318 |  | 
modified u-PA protease domain F30Y/R35Y/R36H/H37P/R37aQ/V38E/T39Y/Y40F/V41R/Y60bH/T97aI/L97bA/H99Q/C122S/Y149R/M157K (enzyme) | 173 | < 10 | 
wild type u-PA (protease domain) with C122S (enzyme) | > 6000 | 15400 | kcat/KM (M^-1s^-1) of Glu-plasminogen activation [3]: 22800 M⁻¹ s⁻¹
